Antibody variant affinities, Ab-91 heavy chain, assay 2

Data: MIT Lincoln Laboratory AlphaSeq set, Engelhart et al. 2022, doi:10.1038/s41597-022-01779-4, as distributed in FLAb.

All variants were tested on one target, the spike HR2 peptide PDVDLGDISGINAS (SARS-CoV-2).

Parent: Ab-91, a human scFv built as VL, a (GGGGS)3 linker, VH. Only the CDRs of the heavy chain vary.
VL: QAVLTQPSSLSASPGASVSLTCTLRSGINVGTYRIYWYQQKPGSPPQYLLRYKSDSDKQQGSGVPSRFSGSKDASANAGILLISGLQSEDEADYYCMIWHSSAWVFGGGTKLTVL
VH: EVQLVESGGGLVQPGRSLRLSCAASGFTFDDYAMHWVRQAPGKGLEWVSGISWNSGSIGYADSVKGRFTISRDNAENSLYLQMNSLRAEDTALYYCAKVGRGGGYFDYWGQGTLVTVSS

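Phage display of a naive human antibody library on the peptide gave the parent. In library AAYL51, one, two or three CDR residues were substituted; doubles and triples were drawn at random. The assay is AlphaSeq: two haploid yeast populations carry antibody and antigen on their surface. Binding brings cells together so that they mate, and sequencing counts the barcode pairs among the diploids. The ratio of observed to expected reads was calibrated, replicate by replicate, on BCL2-family standards whose Kd was known from biolayer interferometry. The assay was run in three technical replicates.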

Variants are written as CDR1, CDR2 and CDR3 of the heavy chain (limits as in the source). Parent: GFTFDDYAMH, GISWNSGSIGYADSVK, VGRGGGYFDY.
Scale: log10 of Kd in nM, estimated from mating counts; low values are strong binders.
"n.d." means that the variant was in the library but no mating with the target was seen in that replicate; the authors take this as a sign of poor binding, and no number exists.
Parent in this assay: reference entry 1.86, copy in this library 0.88.
Three control strains display no target. For library AAYL51, 21% of the pairings with them gave a signal, with a median of 4.54 and one signal in twenty below 3.26, so weak values seen in few replicates may be background. The control count says in how many pairings with the empty strains this scFv gave a signal, with their mean in brackets.

{"CDR-H1": "GFTFDDYAMH", "CDR-H2": "GIKWNSGSTGYADSVK", "CDR-H3": "VGRGGGYFDG", "log10 Kd (nM) by replicate": "3.86 / n.d. / 4.83", "control signals": "3/9 (4.38)"}
{"CDR-H1": "GFTFDKYAMH", "CDR-H2": "GISWNSGSIGFADSVK", "CDR-H3": "VGRGRGYFDY", "log10 Kd (nM) by replicate": "3.27 / 3.03 / 2.64", "control signals": "3/9 (4.44)"}
{"CDR-H1": "GFTFDDYAMH", "CDR-H2": "GISWNSSSIGYADSVK", "CDR-H3": "ADRGGGYFDY", "log10 Kd (nM) by replicate": "2.68 / 2.76 / 2.91", "control signals": "6/9 (5.42)"}
{"CDR-H1": "GFTFDDYAMH", "CDR-H2": "GISINSFSIGYADSVK", "CDR-H3": "VGRGGGIFDY", "log10 Kd (nM) by replicate": "4.00 / 4.10 / 5.16", "control signals": "4/9 (4.21)"}
{"CDR-H1": "GFTFDDYAKH", "CDR-H2": "GWSWNSGSIMYADSVK", "CDR-H3": "VGRGGGYFDY", "log10 Kd (nM) by replicate": "n.d. / n.d. / n.d.", "control signals": "0/9"}
{"CDR-H1": "GFQFDDYAMH", "CDR-H2": "GINWNSGSIGLADSVK", "CDR-H3": "VGRGGGYFDY", "log10 Kd (nM) by replicate": "3.16 / 3.73 / n.d.", "control signals": "1/9 (5.06)"}
{"CDR-H1": "GFTFDSYAMH", "CDR-H2": "GIVWNVGSIGYADSVK", "CDR-H3": "VGRGGGYFDY", "log10 Kd (nM) by replicate": "n.d. / 2.71 / n.d.", "control signals": "0/9"}
{"CDR-H1": "GFTFDDYAWH", "CDR-H2": "GISWNSGSIGYADSVK", "CDR-H3": "VGRGGTKFDY", "log10 Kd (nM) by replicate": "4.15 / 6.28 / 4.62", "control signals": "3/9 (4.62)"}
{"CDR-H1": "GFTFDDYAMH", "CDR-H2": "GIQWNPGSIGYADSVK", "CDR-H3": "VGRGGGCFDY", "log10 Kd (nM) by replicate": "4.87 / 5.73 / n.d.", "control signals": "6/9 (5.37)"}
{"CDR-H1": "GFTFHDYAMH", "CDR-H2": "GIAWNSGSIGYADSVK", "CDR-H3": "NGRGGGYFDY", "log10 Kd (nM) by replicate": "n.d. / 3.90 / 4.66", "control signals": "1/9 (4.47)"}
{"CDR-H1": "GFTPDDYAMH", "CDR-H2": "GISTNSGSIGYLDSVK", "CDR-H3": "VGRGGGYFDY", "log10 Kd (nM) by replicate": "n.d. / n.d. / n.d.", "control signals": "2/9 (4.28)"}
{"CDR-H1": "GFTFDDYAMH", "CDR-H2": "GRMWNSGSIGYADSVK", "CDR-H3": "VGRGGGYVDY", "log10 Kd (nM) by replicate": "5.62 / 5.10 / n.d.", "control signals": "4/9 (5.04)"}
{"CDR-H1": "GFTFDDYAMH", "CDR-H2": "GISWNDGSIGYADSVK", "CDR-H3": "VGRVGGYFDY", "log10 Kd (nM) by replicate": "n.d. / 5.43 / n.d.", "control signals": "1/9 (5.27)"}
{"CDR-H1": "GFTFDDYLMH", "CDR-H2": "GISWISHSIGYADSVK", "CDR-H3": "VGRGGGYFDY", "log10 Kd (nM) by replicate": "n.d. / n.d. / n.d.", "control signals": "0/9"}
{"CDR-H1": "GFTFDDYAMH", "CDR-H2": "GISWNNGSIGYADSVK", "CDR-H3": "VGREGGYFDY", "log10 Kd (nM) by replicate": "n.d. / n.d. / n.d.", "control signals": "0/9"}
{"CDR-H1": "GHTPNDYAMH", "CDR-H2": "GISWNSGSIGYADSVK", "CDR-H3": "VGRGGGYFDY", "log10 Kd (nM) by replicate": "n.d. / n.d. / 4.35", "control signals": "3/9 (4.45)"}
{"CDR-H1": "HFTFDEYAMH", "CDR-H2": "GISWNSGSIGYADSVK", "CDR-H3": "VGRHGGYFDY", "log10 Kd (nM) by replicate": "n.d. / n.d. / n.d.", "control signals": "1/9 (4.81)"}
{"CDR-H1": "GFTFHDYAMH", "CDR-H2": "GIAWNSGSIGTADSVK", "CDR-H3": "VGRGGGYFDY", "log10 Kd (nM) by replicate": "1.03 / 1.05 / 0.88", "control signals": "0/9"}
{"CDR-H1": "GFFFDDCAMH", "CDR-H2": "GISWNSGSIGYADEVK", "CDR-H3": "VGRGGGYFDY", "log10 Kd (nM) by replicate": "n.d. / 4.43 / n.d.", "control signals": "5/9 (4.48)"}
{"CDR-H1": "GFTFDDYAMH", "CDR-H2": "GISMNVGSIGYADSRK", "CDR-H3": "VGRGGGYFDY", "log10 Kd (nM) by replicate": "6.40 / 4.66 / 4.95", "control signals": "5/9 (4.86)"}
{"CDR-H1": "GFTFDDYAMH", "CDR-H2": "GISWNSGSHGYADSVK", "CDR-H3": "VGRKGGYFDY", "log10 Kd (nM) by replicate": "n.d. / n.d. / n.d.", "control signals": "1/9 (4.07)"}

For reference, 2 entries of the list once more:

{"CDR-H1": "GFTFDDYAMH", "CDR-H2": "GISWNSGSHGYADSVK", "CDR-H3": "VGRKGGYFDY", "log10 Kd (nM) by replicate": "n.d. / n.d. / n.d.", "control signals": "1/9 (4.07)"}
{"CDR-H1": "GHTPNDYAMH", "CDR-H2": "GISWNSGSIGYADSVK", "CDR-H3": "VGRGGGYFDY", "log10 Kd (nM) by replicate": "n.d. / n.d. / 4.35", "control signals": "3/9 (4.45)"}